These are literature values, as cited in patent US20240368262A1, “A MYOSTATIN PATHWAY INHIBITOR IN COMBINATION WITH A GLP-1 PATHWAY ACTIVATOR FOR USE IN TREATING METABOLIC DISORDERS” (SCHOLAR ROCK, INC., priority 2021, published 2024).

Protein sequences, listed by entry. Tags and fused reporters are not part of them. Residues count along the entry.
UniProt Q13705, 19-512: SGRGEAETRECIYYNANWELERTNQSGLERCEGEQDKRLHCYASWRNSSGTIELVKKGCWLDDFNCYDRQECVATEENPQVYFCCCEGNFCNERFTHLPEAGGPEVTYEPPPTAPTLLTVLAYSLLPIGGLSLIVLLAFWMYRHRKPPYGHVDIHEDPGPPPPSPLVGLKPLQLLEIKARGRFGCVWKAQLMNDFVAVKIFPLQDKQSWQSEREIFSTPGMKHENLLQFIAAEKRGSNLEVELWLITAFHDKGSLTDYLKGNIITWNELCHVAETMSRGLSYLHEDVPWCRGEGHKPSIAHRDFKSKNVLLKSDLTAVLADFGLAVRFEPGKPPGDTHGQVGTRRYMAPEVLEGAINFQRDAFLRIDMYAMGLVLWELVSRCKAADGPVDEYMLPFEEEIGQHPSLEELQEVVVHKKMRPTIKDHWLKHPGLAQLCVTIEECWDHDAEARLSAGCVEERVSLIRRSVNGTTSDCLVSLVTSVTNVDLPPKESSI

The target of this data set is T1, Activin Receptor type IIB (Homo sapiens, UniProt Q13705).
T1 construct: host or cells: human patients (clinical studies)
To be noted: cited from earlier work.

Take “bimagrumab: antibody that binds Activin Receptor type IIB, thereby interfering with ligand binding”: under “bimagrumab-treated patients over placebo”, the serious adverse events entry is given as “increased serious adverse events”. Further, for the setting “clinical, improving weight, reducing adiposity and preserving lean mass”, the “weight, adiposity and lean mass” value is recorded as “clinically beneficial effects”.
